Substitutions are numbered along the chain they refer to. Where two headings read alike, the source gives them in different places. Values belong to the binder of their own block, whether it stands above or below them.
Experiments:
[1] = target: T1, human nectin-4 protein (human, UniProt Q96NY8 32-510); experiment: FCM, CHO-K1 transient vs mock
T1 construct: transient on CHO-K1 from pCMV-Tag4-Nectin-4
T1 sequence: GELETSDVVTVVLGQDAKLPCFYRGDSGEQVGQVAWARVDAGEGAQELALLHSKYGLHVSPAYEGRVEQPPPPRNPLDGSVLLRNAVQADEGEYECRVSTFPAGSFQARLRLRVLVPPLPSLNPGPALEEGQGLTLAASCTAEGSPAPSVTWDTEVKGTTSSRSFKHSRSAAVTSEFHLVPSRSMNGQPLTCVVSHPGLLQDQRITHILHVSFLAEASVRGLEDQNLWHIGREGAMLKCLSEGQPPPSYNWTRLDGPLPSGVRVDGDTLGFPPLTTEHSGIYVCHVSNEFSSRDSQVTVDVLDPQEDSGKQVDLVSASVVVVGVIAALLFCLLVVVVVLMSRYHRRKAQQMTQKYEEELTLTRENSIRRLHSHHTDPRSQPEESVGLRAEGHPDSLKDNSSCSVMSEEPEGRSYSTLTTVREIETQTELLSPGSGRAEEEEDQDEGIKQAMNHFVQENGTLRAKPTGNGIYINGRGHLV

Chains of the proteins cited; added tags and fusions are not shown. Residues count along the entry.
UniProt Q9NQS3, 58-549 limits assumed: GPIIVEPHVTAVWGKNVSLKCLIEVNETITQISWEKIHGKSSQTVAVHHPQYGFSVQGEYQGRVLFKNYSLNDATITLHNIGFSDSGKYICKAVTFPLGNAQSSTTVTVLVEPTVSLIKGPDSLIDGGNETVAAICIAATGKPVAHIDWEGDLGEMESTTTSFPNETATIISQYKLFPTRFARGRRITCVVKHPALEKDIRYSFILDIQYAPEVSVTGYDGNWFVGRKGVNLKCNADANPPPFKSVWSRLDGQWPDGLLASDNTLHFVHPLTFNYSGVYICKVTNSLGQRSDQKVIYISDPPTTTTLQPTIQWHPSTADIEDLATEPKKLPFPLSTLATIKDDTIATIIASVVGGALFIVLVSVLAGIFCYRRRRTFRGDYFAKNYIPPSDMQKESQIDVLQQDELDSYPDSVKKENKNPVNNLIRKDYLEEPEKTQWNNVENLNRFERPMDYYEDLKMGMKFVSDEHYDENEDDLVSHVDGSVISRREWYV

[2] = target: T2, human Nec1-5 protein (human, UniProt P15151 21-417); experiment: FCM, CHO-K1 transient vs mock
T2 construct: transient on CHO-K1 from pCMV-Tag4-Nec1-5; also called Necl-5
T2 sequence: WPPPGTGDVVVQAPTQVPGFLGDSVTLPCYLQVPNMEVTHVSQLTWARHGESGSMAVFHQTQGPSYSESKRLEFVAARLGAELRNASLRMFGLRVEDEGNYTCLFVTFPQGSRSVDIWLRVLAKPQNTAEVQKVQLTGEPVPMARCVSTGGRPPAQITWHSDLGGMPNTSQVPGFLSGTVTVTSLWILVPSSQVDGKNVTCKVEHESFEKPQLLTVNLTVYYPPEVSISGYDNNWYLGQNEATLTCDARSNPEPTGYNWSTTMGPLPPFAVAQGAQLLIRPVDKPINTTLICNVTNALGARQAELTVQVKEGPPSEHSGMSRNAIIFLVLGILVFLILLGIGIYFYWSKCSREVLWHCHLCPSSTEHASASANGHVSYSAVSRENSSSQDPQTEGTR

[3] = target: T3, human nectin-3 protein (human, UniProt Q9NQS3 58-549); experiment: FCM, CHO-K1 transient vs mock
T3 construct: transient on CHO-K1 from pCMV-Tag4-Nectin-3

[4] = target: T4, human nectin-1 protein (human, UniProt Q15223 31-517); experiment: FCM, CHO-K1 transient vs mock
T4 construct: transient on CHO-K1 from pCMV-Tag4-Nectin-1
T4 sequence: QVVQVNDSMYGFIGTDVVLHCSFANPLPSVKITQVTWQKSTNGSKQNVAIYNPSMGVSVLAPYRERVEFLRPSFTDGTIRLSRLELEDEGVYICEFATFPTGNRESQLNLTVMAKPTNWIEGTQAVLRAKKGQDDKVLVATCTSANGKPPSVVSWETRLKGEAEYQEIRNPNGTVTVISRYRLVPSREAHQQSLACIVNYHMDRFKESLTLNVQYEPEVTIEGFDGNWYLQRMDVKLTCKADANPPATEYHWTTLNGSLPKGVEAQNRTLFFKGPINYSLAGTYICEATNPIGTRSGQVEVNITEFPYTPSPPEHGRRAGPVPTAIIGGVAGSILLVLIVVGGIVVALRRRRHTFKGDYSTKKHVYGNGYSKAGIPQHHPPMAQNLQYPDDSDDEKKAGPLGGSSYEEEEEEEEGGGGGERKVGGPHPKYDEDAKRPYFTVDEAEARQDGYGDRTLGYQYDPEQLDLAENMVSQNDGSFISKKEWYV

[5] = target: T5, nectin-2 Ig2 domain-deficient protein (human, UniProt Q92692 32-538); experiment: FCM, CHO-K1 transient
T5 construct: also called delta-Ig2; Nectin-2ΔIg2
T5 sequence: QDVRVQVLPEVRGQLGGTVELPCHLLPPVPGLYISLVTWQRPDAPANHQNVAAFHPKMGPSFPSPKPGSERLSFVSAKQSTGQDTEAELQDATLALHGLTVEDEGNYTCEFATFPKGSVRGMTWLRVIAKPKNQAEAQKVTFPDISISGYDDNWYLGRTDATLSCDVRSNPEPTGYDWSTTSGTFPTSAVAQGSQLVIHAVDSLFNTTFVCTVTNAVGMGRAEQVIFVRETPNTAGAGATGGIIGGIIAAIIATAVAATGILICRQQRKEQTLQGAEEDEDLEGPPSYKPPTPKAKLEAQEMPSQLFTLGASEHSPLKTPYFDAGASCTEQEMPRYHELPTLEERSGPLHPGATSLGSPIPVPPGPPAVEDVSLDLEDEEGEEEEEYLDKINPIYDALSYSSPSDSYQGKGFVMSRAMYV

[6] = target: T5, nectin-2 Ig2 domain-deficient protein; experiment: FCM, CHO-K1 transient; remark: listed apart in the source

median fluorescence ratio [1]: 1.1 ratio | median fluorescence ratio [2]: 1.1 ratio | median fluorescence ratio [3]: 1.2 ratio | median fluorescence ratio [4]: 1.2 ratio | median fluorescence ratio [5]: 6.2 ratio | median fluorescence ratio [6]: 5.3 ratio
B1: Nec1-803-2 (antibody, human IgG1, V domains shown)
VH: QVQLQESGPGLVKPSETLSLTCTVSGGSISSYYWTWIRQPPGKGLEWIGYIYYSGSTNSNPSLKSRVTISVDTSKNQFSLKLSSVTAADTAVYYCTRDPGEDYNYGMDVWGQGTTVTVSS
VL: AIQLTQSPSSLSASVGDRVTITCRASQGISSALAWYQQKPGKAPKLLIYDASSLESGVPSRFSGSGSGTDFTLTISSLQPEDFATYYCQQFNSYPRTFGQGTKVEIK
notes: human IgG1/k; also called Nec1-803-3

median fluorescence ratio [1]: 1.1 ratio | median fluorescence ratio [2]: 1 ratio | median fluorescence ratio [3]: 1.2 ratio | median fluorescence ratio [4]: 1.2 ratio
B2: Nec1-834-1 (antibody, human IgG1, V domains shown)
VH: B1 VH with G26S, G27A, T35S, S59Y, V71I, T96A, P99A, N104S
VL: AIQLTQSPSSLSASVGDRVTITCRASQGISSALAWYQQKPGKAPKLLIYDASSLESGVPSRFSGSGSGTDFTLTISSLQPEDFATYYCQQFNSYRTFGQGTKVEIK
notes: human IgG1/k

Reference: patent publication US20090142346A1 (Takeda / Millennium, published 2009)
